Experimental findings from ChEMBL document CHEMBL4184320, “Optimization of Selective Mitogen-Activated Protein Kinase Interacting Kinases 1 and 2 Inhibitors for the Treatment of Blast Crisis Leukemia” (J Med Chem, 2018) are described below.

Chains of the proteins cited; added tags and fusions are not shown. Lines headed by an entry give the natural chain unless they say otherwise; changes in a name come on top.
UniProt Q9HBH9: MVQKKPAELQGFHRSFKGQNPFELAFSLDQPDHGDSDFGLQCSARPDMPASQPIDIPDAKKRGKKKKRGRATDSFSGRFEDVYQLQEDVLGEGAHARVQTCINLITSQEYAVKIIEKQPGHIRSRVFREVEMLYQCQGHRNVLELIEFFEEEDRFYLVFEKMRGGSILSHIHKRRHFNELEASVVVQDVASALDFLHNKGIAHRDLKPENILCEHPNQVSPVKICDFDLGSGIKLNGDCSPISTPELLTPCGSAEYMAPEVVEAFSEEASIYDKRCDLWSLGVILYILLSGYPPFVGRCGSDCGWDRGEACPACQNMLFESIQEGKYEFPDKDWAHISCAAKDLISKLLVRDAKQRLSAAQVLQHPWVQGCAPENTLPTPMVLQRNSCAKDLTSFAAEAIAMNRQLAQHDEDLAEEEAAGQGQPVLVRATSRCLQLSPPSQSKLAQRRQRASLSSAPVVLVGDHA
UniProt Q9BUB5: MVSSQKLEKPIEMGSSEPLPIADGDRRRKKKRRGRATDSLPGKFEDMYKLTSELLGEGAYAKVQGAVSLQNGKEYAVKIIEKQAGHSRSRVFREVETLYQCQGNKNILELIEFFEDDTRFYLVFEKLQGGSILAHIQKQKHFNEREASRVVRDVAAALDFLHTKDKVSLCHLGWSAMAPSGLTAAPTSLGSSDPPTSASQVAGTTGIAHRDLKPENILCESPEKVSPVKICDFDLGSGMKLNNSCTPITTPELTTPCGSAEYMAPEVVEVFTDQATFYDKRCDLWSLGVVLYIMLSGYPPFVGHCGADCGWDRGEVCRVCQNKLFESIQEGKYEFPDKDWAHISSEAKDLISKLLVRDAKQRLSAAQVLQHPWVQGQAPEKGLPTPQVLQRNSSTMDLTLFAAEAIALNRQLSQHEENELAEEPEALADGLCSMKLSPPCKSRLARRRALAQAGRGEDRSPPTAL

One data set in a line: in vivo. The conditions noted are these: CD-1, mouse, po, 5 mg/kg.
Data set [1] is described as follows: Efflux ratio of apparent permeability in human Caco2 cells by LC-MS/MS analysis. It counts as ADME, cell-based. The conditions noted are these: Caco-2. A general note: Caco-2 cells form a polarised layer with tight junctions and transporters.
In data set [2] the target is MAP kinase-interacting serine/threonine-protein kinase 1/2 (Homo sapiens, UniProt Q9HBH9+Q9BUB5). Description: Inhibition of MNK1/2 in human HeLa cells assessed as decrease in eIF4E phosphorylation at Ser209 after 2 hrs by AlphaScreen assay. It counts as cell-based. (Alpha assays give light when donor and acceptor beads are brought close together.)

In the case of `N#Cc1ccc(-c2cnc3ccc(-c4ccc(C(=O)N5CCOCC5)cc4)nn23)cc1`, the Tmax in “in vivo” came out at 30 min. Moreover, in data set [1], the efflux ratio is 0.64.
As for `CN1CCN(C(=O)c2ccc(-c3cn4c(-c5ccc(C#N)cc5)cnc4cn3)cc2)CC1`, in data set [2], the concentration for half-maximal inhibition (IC50) came to 0.44 µM.

The Tmax is the time from dosing to the highest level. By efflux ratio is commonly meant a quotient of directional permeabilities that is used to spot active efflux. Usually IC50 stands for the concentration that inhibits the measured activity by half.
